Data taken from US7084106.
Values joined by “and” are separate entries in the source; they are usually repeats but may differ in a detail not shown here. Equal values may be shown once.

Protein sequences, listed by entry. Tags and fused reporters are not part of them. Residues count along the entry.
UniProt P02745, 23-245 limits assumed, chain 1 of 3: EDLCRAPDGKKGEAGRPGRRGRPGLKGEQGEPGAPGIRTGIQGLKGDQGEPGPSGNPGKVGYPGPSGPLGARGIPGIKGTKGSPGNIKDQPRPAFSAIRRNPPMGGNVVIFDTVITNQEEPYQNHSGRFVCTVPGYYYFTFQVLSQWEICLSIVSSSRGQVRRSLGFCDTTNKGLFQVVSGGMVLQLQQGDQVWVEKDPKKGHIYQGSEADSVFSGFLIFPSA

Experiments:
[1] = biological target: complement component C1q (in human serum) (human) (UniProt P02745); assay: cell-based or functional assay
[2] = biological target: complement component C3 (in human serum) (human) (UniProt P01024); assay: cell-based or functional assay

## Abeta1-42 (QCB, Hopkinton, Mass.), fibrillar (from UniProt P05067 672-713) (peptide)
[1]
  complement activation measured as SC5b-9 formation (enzyme immunoassay), normal human serum with 50 uM Abeta: 150 ng/mL and 200 ng/mL
[2]
  complement activation measured as SC5b-9 formation (enzyme immunoassay), normal human serum with 50 uM Abeta: 150 ng/mL and 200 ng/mL
